Tested on: cancer cell lines
Assay: Growth inhibitory effects on the panel of cancer cell lines

C[C@@H](O)[C@H]1C(=O)N2C(C(=O)OCOC(=O)C(C)(C)C)=C(SC3CN(C4=NCCS4)C3)[C@H](C)[C@H]12 [Tebipenem pivoxil (L-084), Tebipenem pivoxil]
Numbers of inhibitory effect on cancer cell line: 0 | inhibition effect on different cancer cell lines (in words): significant inhibition effect

— patent US20170304388A1, “NEW INDICATION OF CARDIOVASCULAR DRUGS FOR PREPARATION OF CANCER INHIBITION PHARMACEUTICAL COMPOSITION” (LAUNX BIOMEDICAL CO., LTD., priority 2014, published 2017)
